pIC50: −log10 of the molar value.
Target: T1, IDO1 enzyme in Hela cells (Homo sapiens, UniProt P14902)
T1 construct: endogenous in cells; host or cells: HeLa cells stimulated with human recombinant IFN-γ
Experiment: Inhibition of IDO1 enzyme in IFN-γ stimulated Hela cells (kynurenine read at 480 nm)
Format: cell-based

Protein sequences, listed by entry. Tags and fused reporters are not part of them.
UniProt P14902, whole entry: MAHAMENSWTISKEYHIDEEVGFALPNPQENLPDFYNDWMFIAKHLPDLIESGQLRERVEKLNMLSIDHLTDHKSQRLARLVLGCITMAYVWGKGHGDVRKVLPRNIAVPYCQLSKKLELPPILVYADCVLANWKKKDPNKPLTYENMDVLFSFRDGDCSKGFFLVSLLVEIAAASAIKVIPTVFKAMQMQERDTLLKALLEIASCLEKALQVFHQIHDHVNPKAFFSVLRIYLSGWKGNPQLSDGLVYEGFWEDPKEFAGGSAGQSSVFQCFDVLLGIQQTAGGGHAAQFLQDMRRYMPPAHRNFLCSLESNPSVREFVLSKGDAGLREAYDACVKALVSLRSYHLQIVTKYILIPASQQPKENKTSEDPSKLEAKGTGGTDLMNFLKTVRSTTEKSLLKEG

Q: What does the source list for CCCCN(CCCC)c1ccc(/C(C)=C/C(=O)O)cc1NC(=O)Nc1ccc(C)cc1 [Compound 525, (E)-3-(4-(dibutylamino)-3-(3-(p-tolyl)ureido)phenyl)but-2-enoic acid]?
A: pIC50: 8.87; inhibition at 0.1 µM (HeLa, 48 h, read-out: Inhibition rate (%) 100 nmol): 75.1%; inhibition at 10 µM (HeLa, 48 h, read-out: Inhibition rate (%) 10 μmol): 100%; activity compared with positive control drugs INCB024360 and IN-4 (Hela cells, IC50 comparison): can reach or exceed those of the positive control drugs INCB024360 and IN-4

Reference: US11370762B2, “Vinylarene derivative and application” (SHENYANG RESEARCH INSTITUTE OF CHEMICAL INDUSTRY CO., LTD., priority 2017, dated 2022)
